Assay: Solubility of capsaicin in various substances (sonication, visual evaluation)
Settings: 90 minutes sonication, water bath to approx. 40° C.

Substance | Capsaicin Solubility (% w/w)
Octyldodecanol | <5.2
Ethoxydiglycol | >50

— patent US20040180081A1, “Compositions and kits for the removal of irritating compounds from bodily surfaces” (published 2004)
